Source: publication PMC12024540, “Peptide-Based Regulation of TNF-α-Mediated Cytotoxicity” (Biomolecules, 2025)

Chains of the proteins cited; added tags and fusions are not shown. Residues count along the entry.
UniProt P19438, 42-181: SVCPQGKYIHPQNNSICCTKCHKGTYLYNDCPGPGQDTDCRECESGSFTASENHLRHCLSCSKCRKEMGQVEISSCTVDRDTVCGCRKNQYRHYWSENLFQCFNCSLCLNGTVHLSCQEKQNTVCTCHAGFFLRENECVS

Target: Human TNFR1 (soluble) recombinant protein (human) (UniProt P19438)
Test: MST; labelled TNFR1 (RED-NHS 2nd Generation) at 1 nM, rhTNF-α titrated, PBS, Monolith NT.115 Pico

Kd: 4.94 nM
Substance: recombinant human tumor necrosis factor alpha (rhTNF-α) (ligand)
